Measured values from US6331660A, “Maize DIMBOA biosynthesis genes” (Dekalb Genetics Corporation, priority 1998, dated 2001).

System: O=P(O)(O)OCC(O)C(O)c1c[nH]c2ccccc12
Assay: purified protein, by the assay type
Conditions: other: 4 μg Bx1 protein, 22° C., indole-3-glycerol phosphate 0 to 50 μM, coupled with glyceraldehyde phosphate dehydrogenase and 0.5 mM NAD

maize Bx1 protein (Bx1 cDNA SEQ ID NO:1; polypeptide SEQ ID NO:2), expressed in E. coli, COOH-terminal histidine tag, independent of TSB (Zea mays)
Km: 13 µM
kcat: 2.8 s⁻¹
